Source: publication PMC7946667 (Cancer Chemotherapy and Pharmacology, 2021)
Like-named read-outs stand apart in the source and are kept apart here.

Test system: CYP2C9
Conditions: median [min, max]
[1] = warfarin 10 mg single oral dose + ceritinib 750 mg QD (Day 28)
[2] = warfarin 10 mg single oral dose alone (Day 1)

SMILES	Tmax [1]	Tmax [2]
CC(=O)C[C@@H](c1ccccc1)c1c(O)c2ccccc2oc1=O [S-warfarin]	2.75 [0.250; 6.40] h	1.47 [0.483; 3.92] h
CC(=O)C[C@H](c1ccccc1)c1c(O)c2ccccc2oc1=O [R-warfarin]	2.83 [0.250; 71.2] h	1.98 [0.483; 21.7] h
